# Data from article PMC4210126 (ACS Chemical Neuroscience, 2014).
# Amino acid sequences for entries named in this document (tags omitted). Residues count along the entry.
# UniProt P30536, whole entry: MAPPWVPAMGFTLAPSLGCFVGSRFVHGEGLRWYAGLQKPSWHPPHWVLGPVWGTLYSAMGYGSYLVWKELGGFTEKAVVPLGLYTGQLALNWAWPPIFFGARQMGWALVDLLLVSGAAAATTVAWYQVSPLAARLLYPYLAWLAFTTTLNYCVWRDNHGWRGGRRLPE
# UniProt P30536, 2-169 limits assumed: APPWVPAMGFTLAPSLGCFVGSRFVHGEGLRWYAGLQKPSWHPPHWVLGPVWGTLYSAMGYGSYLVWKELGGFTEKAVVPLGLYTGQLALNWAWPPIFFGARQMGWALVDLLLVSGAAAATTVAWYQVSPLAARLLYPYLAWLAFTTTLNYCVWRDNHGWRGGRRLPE
# Like-named read-outs stand apart in the source and are kept apart here.
# Tests used:
# [1] = target: T1, human HAB TSPO (Homo sapiens, UniProt P30536); assay: Receptor binding assay in human leukocyte homogenates with [^3H]1, HAB
# [2] = target: T1, human HAB TSPO; settings: read-out: mean KD; self-displacement assay; human leukocyte homogenates; cited from earlier work
# [3] = target: T2, human LAB TSPO (Homo sapiens, UniProt P30536); assay: Receptor binding assay in human leukocyte homogenates with [^3H]1, LAB
# [4] = target: T2, human LAB TSPO; assay type: binding
compound,measurement,setting,value
CCC(C)N(C)C(=O)c1cc2ccccc2c(-c2ccccc2Cl)n1 (stereo not shown) [Ligand 1],Ki,[1],4.06 ± 1.2 nM
same,Kd,[2],4.7 nM
same,Ki,[3],3.94 ± 1.2 nM
same,Ki,[4],4.16 ± 0.89 nM
